Test results published in PMC2943425 (Journal of medicinal chemistry, 2010).

Molecular target: human δ-opioid receptor (Homo sapiens, UniProt P41143)
Test: Radioligand binding, [3H]DPDPE competition, HN9.10 cell membranes

With “Tyr^1-D-Ala^2-Gly^3-Phe^4-Met^5-Pro^6-Leu^7-Trp^8-O-[3′,5′-(CF3)2-Bzl] [TY005]” the “δ-selectivity of δ/μ opioid agonist lead compounds” value was “up to 25 fold”.
